Reference: patent publication US20250197414A1, “SALT FORM AND CRYSTAL FORM OF VANIN ENZYME INHIBITOR, METHOD FOR PREPARING SAME, AND USE THEREOF” (SHANGHAI MEIYUE BIOTECH DEVELOPMENT CO., LTD., priority 2022, published 2025)

Key:
[1] = Solubility test of compound of formula I and its salts at 37° C.; type: physicochemical
Experimental: The solubility of the compound of formula I and the L-tartrate, fumarate, and D-malate thereof was studied in water, SGF, FaSSIF, FeSSIF, and pH 7.4 at 37° C.
Experimental method: 30 mg (in water) or 15 mg of the sample was weighed into a 4 mL vial, then 3 mL of the medium to be tested was added thereto, and the resulting mixture was stirred continuously at 37° C. 0.5 mL of the sample was collected at 1 hour and 24 hours, respectively, and centrifuged at 12,000 rpm for 5 minutes. The supernatant was diluted to an appropriate multiple with 50% acetonitrile and its concentration was determined.
Therefore, 13 mg of the fumarate of the compound of formula I was weighed into a 25 mL volumetric flask (approximately 10 mg added to the 25 mL volumetric flask, calculated as free base), dissolved in 50% acetonitrile aqueous solution and diluted to the scale, and two samples were prepared in parallel. STD-1 was diluted to 200 μg/mL, 50 μg/mL, and 10 μg/mL with 50% acetonitrile aqueous solution. 5 μL of the sample was injected, and the standard curve was plotted.

[2] = Solubility study on crystal form A at 37° C.; type: physicochemical
Experimental: The solubility of the crystal form Ain SGF, FaSSIF, FeSSIF, and pH 7.4 was evaluated.

| SMILES | Final pH ([1]; FaSSIF, 37° C.) | Final pH ([1]; FeSSIF, 37° C.) | Final pH ([1]; SGF, 37° C.) | Final pH ([1]; pH 7.4, 37° C.) | Final pH ([2]; FaSSIF, 37° C.) | Phenomenon ([2]; FaSSIF, 37° C.) | Solubility ([2]; FaSSIF, 37° C.) [µg/mL] | Final pH ([2]; FeSSIF, 37° C.) | Phenomenon ([2]; FeSSIF, 37° C.) | Solubility ([2]; FeSSIF, 37° C.) [µg/mL] | Final pH ([2]; SGF, 37° C.) | Phenomenon ([2]; SGF, 37° C.) | Solubility ([2]; SGF, 37° C.) [µg/mL] | solubility (in words) ([2]; all media (SGF, FaSSIF, FeSSIF, pH 7.4)) | Final pH ([2]; pH 7.4, 37° C.) | Phenomenon ([2]; pH 7.4, 37° C.) | Solubility ([2]; pH 7.4, 37° C.) [µg/mL] |
| --- | --- | --- | --- | --- | --- | --- | --- | --- | --- | --- | --- | --- | --- | --- | --- | --- | --- |
| O=C(O)CC(O)C(=O)O.O=C(c1cnc(NC2CCc3ncccc32)nc1)N1CCC2(CCOCC2)C1 [D-malate of compound of formula I] | 4.47 | 4.75 | 1.36 | 6.60 | – | – | – | – | – | – | – | – | – | – | – | – | – |
| O=C(O)C=CC(=O)O.O=C(c1cnc(NC2CCc3ncccc32)nc1)N1CCC2(CCOCC2)C1 (stereo not drawn) [Fumarate of compound of formula I] | 4.01 | 4.71 | 1.36 | 6.54 | – | – | – | – | – | – | – | – | – | – | – | – | – |
| O=C(c1cnc(N[C@@H]2CCc3ncccc32)nc1)N1CCC2(CCOCC2)C1 [Mono-L-tartrate of compound of formula I] | – | 4.69 | 1.37 | 6.58 | – | – | – | – | – | – | – | – | – | – | – | – | – |
| O=C(O)C(O)C(O)C(=O)O.O=C(c1cnc(NC2CCc3ncccc32)nc1)N1CCC2(CCOCC2)C1 (stereo not drawn) [crystal form A] | – | – | – | – | 4.32 | Solid dissolves immediately | >7600 | 4.77 | Solid dissolves immediately | >7300 | 1.29 | Solid dissolves immediately | >7100 | good solubility | 6.57 | Solid dissolves immediately | >7200 |
